From patent US20230001027A1, “METAL CHELATING AGENTS AND METHODS OF USING THE SAME” (priority 2019, published 2023)

How the values were obtained:
[1] = 1D ^1H spectrum and ^1H-^13C HSQC the same even after 6 months in solution
[2] = PET, aged rats (retired breeders); cited from earlier work
[3] = 26 month old rats, monitored out to 177 hr

Substance: Zn-DOTA-alendronate [reference compound]
- stability of the complex in solution [1]: stable

Substance: Zr-DOTA-alendronate
- stability of the complex in solution [1]: stable
- uptake in older rats bearing lesions (older rats (26 mos) with proven vascular calcification): specific uptake
- clearance from young rats (young rats (3 mos) bearing no sites of calcium vascularization): rapidly cleared

Substance: ^64Cu-DOTA-alendronate
- uptake in the vascular system [2]: no uptake

Substance: ^89Zr-DOTA-alendronate
- heart well visualized [3]: ≤ 4 h
- retention in the aorta [3]: up to 2 hrs
- uptake in the aorta, 26 month old vs 3 month old rat (1 hr time point): 2.4 times
- Regions of interest: Aorta (PET, 0 hrs, 3 mos Rat): 1.64
- Regions of interest: Heart (PET, 0 hrs, 3 mos Rat): 2.86
- Regions of interest: Kidneys (PET, 0 hrs, 3 mos Rat): 5.90
- Regions of interest: Vena cava (PET, 0 hrs, 3 mos Rat): 3.29
- Regions of interest: Aorta (PET, 0 hrs, 26 mos Rat): 3.05
- Regions of interest: Heart (PET, 0 hrs, 26 mos Rat): 4.49
- Regions of interest: Kidneys (PET, 0 hrs, 26 mos Rat): 6.39
- Regions of interest: Vena cava (PET, 0 hrs, 26 mos Rat): 4.21
- Regions of interest: Aorta (PET, 1 hr, 3 mos Rat): 0.83
- Regions of interest: Heart (PET, 1 hr, 3 mos Rat): 1.32
- Regions of interest: Kidneys (PET, 1 hr, 3 mos Rat): 0.96
- Regions of interest: Vena cava (PET, 1 hr, 3 mos Rat): 1.23
- Regions of interest: Aorta (PET, 1 hr, 26 mos Rat): 1.98
- Regions of interest: Heart (PET, 1 hr, 26 mos Rat): 2.74
- Regions of interest: Kidneys (PET, 1 hr, 26 mos Rat): 1.62
- Regions of interest: Vena cava (PET, 1 hr, 26 mos Rat): 2.50
- washout from heart, venous flow and kidneys (PET, one hour time point, 3 month old and 26 month old rats): rapid washout

Substance: ^89Zr-oxalate [reference compound]
- clearance via the kidneys (rat, in vivo): rapid clearance

Where two headings read alike, the source gives them in different places.
